# Experimental data from article PMC11551741 (Nucleic Acids Research, 2024).
# T1: SLF1^tBRCT (tandem BRCT domain of SLF1, residues 6-208) (human, UniProt Q9BQI6 6-208)
# T1 construct: SLF1 (SMC5-SMC6 complex localization factor 1), human, tandem BRCT domain, residues 6-208; pHAT4 construct; also called wild-type SLF1^tBRCT; not shown: His-tag, N-terminal, cleaved
# T1 sequence (looked up): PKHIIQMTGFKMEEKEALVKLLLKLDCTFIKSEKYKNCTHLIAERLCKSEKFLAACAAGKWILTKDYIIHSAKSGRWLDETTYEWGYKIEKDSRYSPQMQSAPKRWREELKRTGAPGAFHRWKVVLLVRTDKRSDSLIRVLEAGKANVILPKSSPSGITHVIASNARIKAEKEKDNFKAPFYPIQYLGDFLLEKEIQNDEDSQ
# T2: SLF1^tBRCT_K56A (human, UniProt Q9BQI6 6-208, K56A)
# T2 construct: SLF1, human, tandem BRCT domain, residues 6-208, K56A; not shown: His-tag, N-terminal, cleaved
# T2 sequence (looked up): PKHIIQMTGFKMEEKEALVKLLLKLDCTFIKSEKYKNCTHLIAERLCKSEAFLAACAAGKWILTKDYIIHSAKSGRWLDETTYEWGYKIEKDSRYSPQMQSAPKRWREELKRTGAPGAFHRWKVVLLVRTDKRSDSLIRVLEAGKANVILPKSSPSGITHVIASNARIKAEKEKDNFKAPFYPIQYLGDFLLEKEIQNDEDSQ
# Tests used:
# [1] = target: T1, SLF1^tBRCT (tandem BRCT domain of SLF1, …); test: fluorescence polarisation; 20 nM 6-FAM-RAD18(442p,444p)^peptide with rising SLF1^tBRCT or SLF1^tBRCT_K56A; 20 mM Tris pH 8.0, 150 mM NaCl, 5% glycerol; room temperature 30 mins; one-site specific binding model; settings: both partners purified
# SLF1^tBRCT_K56A = target: T2, SLF1^tBRCT_K56A; test: as above; settings: both partners purified
binder,measurement,setting,value
"SSSSDI (6-FAM (6-carboxyfluorescein) on the N-terminus; phosphoserine at 442 and 444; C-terminal amidation, RAD18, human, residues S441 to I446; the methods say that all RAD18 peptides are N-terminally acetylated; this one is printed with 6-FAM at the N-terminus; also called 6-FAM labelled S(pS)S(pS)DI peptide; 6-FAM-labelled RAD18 peptide; source: synthetic peptide (Biomatik)) [6-FAM-RAD18(442p,444p)^peptide (6-FAM-S(pS)S(pS)DI)]",Kd,[1],~1.06 µM
same,Kd,SLF1^tBRCT_K56A,6.63 µM
